Test results: PubChem BioAssay AID588574 (Sanford-Burnham Center for Chemical Genomics, 2011)

Amino acid sequences for entries named in this document (tags omitted).
UniProt P42574, whole entry, looked up: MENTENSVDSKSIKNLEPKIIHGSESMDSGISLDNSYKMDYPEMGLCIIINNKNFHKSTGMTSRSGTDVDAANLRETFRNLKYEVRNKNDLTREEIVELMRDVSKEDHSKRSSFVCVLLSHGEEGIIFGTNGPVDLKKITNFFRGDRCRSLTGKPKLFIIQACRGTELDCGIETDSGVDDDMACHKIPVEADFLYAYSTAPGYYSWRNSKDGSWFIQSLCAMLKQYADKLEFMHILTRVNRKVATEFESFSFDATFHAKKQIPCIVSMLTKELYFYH
UniProt P55211, whole entry, looked up: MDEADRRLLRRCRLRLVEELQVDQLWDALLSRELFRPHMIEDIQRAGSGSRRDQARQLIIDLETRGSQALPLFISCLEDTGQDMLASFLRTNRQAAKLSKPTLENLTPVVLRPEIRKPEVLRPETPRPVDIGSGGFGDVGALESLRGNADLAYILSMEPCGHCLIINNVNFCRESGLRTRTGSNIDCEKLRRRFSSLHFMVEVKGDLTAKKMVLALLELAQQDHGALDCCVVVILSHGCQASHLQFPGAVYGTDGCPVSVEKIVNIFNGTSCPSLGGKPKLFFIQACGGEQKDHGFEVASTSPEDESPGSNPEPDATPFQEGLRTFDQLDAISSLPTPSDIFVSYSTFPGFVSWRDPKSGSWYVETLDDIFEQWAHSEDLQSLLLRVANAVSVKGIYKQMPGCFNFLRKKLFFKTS

Molecular target: Caspase-3 (Homo sapiens) + Caspase-9 (Homo sapiens) (UniProt P42574+P55211)
Assay: inhibition of LZ-caspase-9 coupled caspase-3 activity – biochemical, fluorescence, uHTS hits, selectivity assay, dose response (AID 588574)
Details: LZ-caspase-9/caspase-3 coupled fluorogenic substrate

## CC1=C2N=C(C=C3N=C(C(C)=C4[N-][C@@](C)([C@@H]5N=C1[C@](C)(CCC(=O)NC[C@@H](C)OP(=O)([O-])O[C@H]1[C@@H](O)[C@@H](n6cnc7cc(C)c(C)cc76)O[C@@H]1CO)[C@H]5CC(N)=O)[C@@](C)(CC(N)=O)[C@@H]4CCC(N)=O)[C@@](C)(CC(N)=O)[C@@H]3CCC(N)=O)C(C)(C)[C@@H]2CCC(N)=O.[C-]#N.[Co+3]
  IC50: 437 nM
